Consider 1 substance from patent publication US20050238734A1, “Detection of nitrosylated proteins” (University of Vermont and State Agricultural College, priority 2004, published 2005).

The series can be described thus: Reduction of GSSG to GSH by ascorbate in HENS buffer, analysed by HPLC. Type of series: physicochemical. The note with it: for % GSSG reduced 10 mM asc. / GSH μM 10 mM asc.: 10 mM ascorbate; for % GSSG reduced 20 mM asc. / GSH μM 20 mM asc.: 20 mM ascorbate. The protocol:
Various solution of GSSG were treated in HENS buffer with either 10 mM or 20 mM ascorbate (“asc”), then analyzed for its potential reduction to GSH by HLPC. […] Thus, the ascorbate-dependent SH biotinylation was believed to be primarily due to SNO, with only a minor contribution of disulfides.

Consider oxidized glutathione [GSSG], for which, where the note is “10 mM or 20 mM ascorbate, HENS buffer, summary of Table 1”, the “fraction of GSSG reduced” value is given as “less than 0.09%”. Moreover, the “% GSSG reduced 10 mM asc.” value reads like this: (GSSG 100 μM) 0.01%; (GSSG 500 μM) 0.08%; (GSSG 1000 μM) 0.09%. Also, the “GSH μM 10 mM asc.” value is, setting by setting: (GSSG 100 μM, HENS buffer) 0.11 µM; (GSSG 500 μM, HENS buffer) 0.96 µM; (GSSG 1000 μM, HENS buffer) 1.53 µM. Further, the “% GSSG reduced 20 mM asc.” value is, setting by setting: (GSSG 100 μM) 0.01%; (GSSG 500 μM) 0.14%; (GSSG 1000 μM) 0.17%. In addition, the “GSH μM 20 mM asc.” value (GSSG 100 μM, HENS buffer) is 0.11 µM; the “GSH μM 20 mM asc.” value (GSSG 500 μM, HENS buffer) is 1.29 µM; the “GSH μM 20 mM asc.” value (GSSG 1000 μM, HENS buffer) was determined as 2.27 µM.
